Test results from paper PMC11993666 (2025).

Chains of the proteins cited; added tags and fusions are not shown. Residues count along the entry.
UniProt P25942, 21-277: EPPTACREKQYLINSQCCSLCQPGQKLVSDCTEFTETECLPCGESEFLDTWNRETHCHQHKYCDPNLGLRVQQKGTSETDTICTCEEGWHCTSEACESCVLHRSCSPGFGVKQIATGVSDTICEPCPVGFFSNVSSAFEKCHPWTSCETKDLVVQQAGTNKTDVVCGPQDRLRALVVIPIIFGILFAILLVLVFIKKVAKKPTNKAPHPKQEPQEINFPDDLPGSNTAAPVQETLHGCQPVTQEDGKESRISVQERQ

Key:
Assay in all cases: SPR
hCD40 (as used in SPR) [1] = molecular target: T1, hCD40 (as used in SPR) (human, UniProt P25942 21-277)
hCD40 (as used in SPR) [2] = molecular target: T1, hCD40 (as used in SPR); remark: listed apart in the source
hCD40 (as used in SPR) [3] = molecular target: T1, hCD40 (as used in SPR); remark: listed apart in the source
hCD40 (as used in SPR) [4] = molecular target: T1, hCD40 (as used in SPR); remark: listed apart in the source

koff (hCD40 (as used in SPR) [1]) | Kd (hCD40 (as used in SPR) [2]) | Kd (hCD40 (as used in SPR) [3]) | koff (hCD40 (as used in SPR) [4]) | Binder
0.000194 s⁻¹ | 1.52 nM |  |  | ChiLob7/4 hIgG2 C232S + K228C κC214S (cross-over + K228C) (antibody, V domains shown, glycosylated at N297 (Fc)) VH: EVQLQQSGPDLVKPGASVKISCKTSGYTFTEYIMHWVKQSHGKSLEWIGGIIPNNGGTSYNQKFKDKATMTVDKSSSTGYMELRSLTSEDSAVYYCTRREVYGRNYYALDYWGQGTLVTVSS VL: DIQMTQTTSSLSASLGDRVTITCSASQGINNYLNWYQQKPDGTVKLLIYYTSSLHSGVPSRFSGSGSGTDYSLTISNLEPEDIATYYCQQYSNLPYTFGGGTKLEIK
 |  | 6.67 nM | 0.000372 s⁻¹ | ChiLob7/4 hIgG2 C233S κC214S (antibody, V domains shown, glycosylated at N297 (Fc)) VH: EVQLQQSGPDLVKPGASVKISCKTSGYTFTEYIMHWVKQSHGKSLEWIGGIIPNNGGTSYNQKFKDKATMTVDKSSSTGYMELRSLTSEDSAVYYCTRREVYGRNYYALDYWGQGTLVTVSS VL: DIQMTQTTSSLSASLGDRVTITCSASQGINNYLNWYQQKPDGTVKLLIYYTSSLHSGVPSRFSGSGSGTDYSLTISNLEPEDIATYYCQQYSNLPYTFGGGTKLEIK
0.000221 s⁻¹ | 1.82 nM |  |  | ChiLob7/4 hIgG2 C232S + T222C κE123C + κC214S (cross-over + T222C κE123C) (antibody, V domains shown, glycosylated at N297 (Fc)) VH: EVQLQQSGPDLVKPGASVKISCKTSGYTFTEYIMHWVKQSHGKSLEWIGGIIPNNGGTSYNQKFKDKATMTVDKSSSTGYMELRSLTSEDSAVYYCTRREVYGRNYYALDYWGQGTLVTVSS VL: DIQMTQTTSSLSASLGDRVTITCSASQGINNYLNWYQQKPDGTVKLLIYYTSSLHSGVPSRFSGSGSGTDYSLTISNLEPEDIATYYCQQYSNLPYTFGGGTKLEIK
 |  | 4.74 nM | 0.000294 s⁻¹ | ChiLob7/4 hIgG2 C232S κC214S (cross-over) (antibody, V domains shown, glycosylated at N297 (Fc)) VH: EVQLQQSGPDLVKPGASVKISCKTSGYTFTEYIMHWVKQSHGKSLEWIGGIIPNNGGTSYNQKFKDKATMTVDKSSSTGYMELRSLTSEDSAVYYCTRREVYGRNYYALDYWGQGTLVTVSS VL: DIQMTQTTSSLSASLGDRVTITCSASQGINNYLNWYQQKPDGTVKLLIYYTSSLHSGVPSRFSGSGSGTDYSLTISNLEPEDIATYYCQQYSNLPYTFGGGTKLEIK
 |  | 0.611 nM | 7.05e-05 s⁻¹ | ChiLob7/4 hIgG2 C232S + C233S (antibody, V domains shown, glycosylated at N297 (Fc)) VH: EVQLQQSGPDLVKPGASVKISCKTSGYTFTEYIMHWVKQSHGKSLEWIGGIIPNNGGTSYNQKFKDKATMTVDKSSSTGYMELRSLTSEDSAVYYCTRREVYGRNYYALDYWGQGTLVTVSS VL: DIQMTQTTSSLSASLGDRVTITCSASQGINNYLNWYQQKPDGTVKLLIYYTSSLHSGVPSRFSGSGSGTDYSLTISNLEPEDIATYYCQQYSNLPYTFGGGTKLEIK

Like-named read-outs stand apart in the source and are kept apart here.
